# Test results from US20180371033A1, “THERAPEUTIC PEPTIDES AND METHODS OF USE THEREOF” (priority 2015, published 2018).
# Tests used:
# [1] = format: in vivo, mice; details: 14C whole body autoradiography
# Excerpt: This example describes biodistribution of peptides.
# ND indicates the peptide was not detected in that tissue.
# [2] = for Blood (densitometric signal in the heart blood) / Brain (percentage of signal in that tissue compared to the signal detected in the heart blood): 14C-radiolabeled peptide, tail vein injection, kidneys ligated, target three hours circulation
# [3] = Brain section autoradiography: peptide homing to ventricles and cerebral spinal fluid; format: in vivo, Female Harlan athymic nude mice; details: 14C signal in sagittal/coronal brain sections, 3 hours after administration
# Excerpt: The experiment was done in duplicates.
# [4] = radioactivity signal per area in blood compared to tissue
Sequence,Adipose (percentage of signal compared to blood in the heart) [1] [%],Liver (percentage of signal compared to heart blood) [1] [%],Lower GI (percentage of signal compared to blood in the heart) [1] [%],Lung (percentage of signal compared to heart blood) [1] [%],Muscle (percentage of signal compared to blood in the heart) [1] [%],Salivary gland (percentage of signal compared to heart blood) [1] [%],Upper GI (percentage of signal compared to blood in the heart) [1] [%],Blood (densitometric signal in the heart blood) [2],Brain (percentage of signal in that tissue compared to the signal detected in the heart blood) [2] [%],localization of the peptide to specific structures in the brain [3],further results
"GSKCLPPGKPCYGATQKIPCCGVCSHNNCT [GS-Hainantoxin, reference compound]",5.05,70.61,10.65,85.11,20.63,16.59,387.02,1768833565,3.65,,Gall bladder (percentage of signal compared to blood in the heart) [1]: 315.85%; Reproductive (tract; percentage of signal compared to heart blood) [1]: 77.98%
GSMCIPCFTTNPNMAAKCNACCGSRRGSCRGPQCIC [SEQ ID NO: 1],4.78,129.99,9.87,89.98,36.56,62.08,793.25,2203247460,14.53,,"Pancreas (percentage of signal compared to blood in the heart) [1]: 92.54%; Spleen (percentage of signal compared to blood in the heart) [1]: 83.62%; Bladder [1, 4]: ND (ND indicates the peptide was not detected in that tissue); Spinal Cord [1, 4]: moderate; penetration of the blood brain barrier in comparison with the negative controls ([2]; reference level for high penetration: at least 10% diffuse signal in brain versus blood): highly penetrate the blood brain barrier"
GSVGCEECPMHCKGKNANPTCDDGVCNCNV [first purified fraction (first HPLC peptide peak) of a peptide of SEQ ID NO: 55],,,,,,,,,,"specific structures in the brain, such as ventricles and CSF",
GSVGCEECPMHCKGKNANPTCDDGVCNCNV [second purified fraction (second HPLC peptide peak from the ],,,,,,,,,,"specific structures in the brain, such as ventricles and CSF",
GSVGCEECPMHCRGRNANPTCDDGVCNCNV [SEQ ID NO: 83],,,,,,,,,,"specific structures in the brain, such as ventricles and CSF",
